The text below walks through data of US20250042896A1, “POLYCYCLIC COMPOUND AS CBL-B INHIBITOR” (HAINAN SIMCERE ZAIMING PHARMACEUTICAL CO., LTD., priority 2021, published 2025).

Amino acid sequences for entries named in this document (tags omitted).
UniProt Q13191, whole entry: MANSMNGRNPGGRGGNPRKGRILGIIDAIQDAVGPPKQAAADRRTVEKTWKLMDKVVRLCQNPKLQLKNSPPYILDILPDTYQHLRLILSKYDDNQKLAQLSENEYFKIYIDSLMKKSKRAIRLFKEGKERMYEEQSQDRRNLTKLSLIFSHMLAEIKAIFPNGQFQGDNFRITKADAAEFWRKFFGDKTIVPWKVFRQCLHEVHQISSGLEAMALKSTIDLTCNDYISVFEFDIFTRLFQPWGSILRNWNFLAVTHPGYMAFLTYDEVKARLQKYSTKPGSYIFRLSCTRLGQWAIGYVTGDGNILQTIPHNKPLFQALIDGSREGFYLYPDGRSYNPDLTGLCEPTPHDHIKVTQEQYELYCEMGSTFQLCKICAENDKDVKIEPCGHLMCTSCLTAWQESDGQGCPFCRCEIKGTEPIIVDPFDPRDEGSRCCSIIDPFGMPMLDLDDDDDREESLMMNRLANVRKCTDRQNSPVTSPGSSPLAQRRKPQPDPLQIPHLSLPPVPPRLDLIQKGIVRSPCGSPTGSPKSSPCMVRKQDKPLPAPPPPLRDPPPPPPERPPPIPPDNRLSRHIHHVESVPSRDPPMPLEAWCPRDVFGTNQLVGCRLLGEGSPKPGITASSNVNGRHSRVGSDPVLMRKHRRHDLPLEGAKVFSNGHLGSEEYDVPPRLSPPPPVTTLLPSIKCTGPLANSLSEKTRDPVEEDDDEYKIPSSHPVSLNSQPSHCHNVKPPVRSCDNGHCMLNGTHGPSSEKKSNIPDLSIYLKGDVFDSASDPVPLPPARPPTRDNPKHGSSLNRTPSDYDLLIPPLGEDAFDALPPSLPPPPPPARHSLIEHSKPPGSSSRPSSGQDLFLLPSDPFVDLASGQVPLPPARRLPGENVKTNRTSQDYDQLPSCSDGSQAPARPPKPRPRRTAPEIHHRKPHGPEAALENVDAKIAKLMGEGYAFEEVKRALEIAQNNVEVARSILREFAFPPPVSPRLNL

SMILES strings stand for the structures.

For assay [1], the target named is Cbl-b protein and UbcH5B-Ub (Homo sapiens (Human), UniProt Q13191). Briefly: Cbl-b activity assay (HTRF, interaction between Cbl-b protein and UbcH5B-Ub). As to conditions: inhibition of interaction between Biotin-Cbl-b protein and Eu-Ubquitin-UbcH5B, HTRF signal 665 nm/615 nm. As for the experimental part: Experiment purpose: Testing of inhibitory activity of compounds on the interaction between Cbl-b protein and UbcH5B-Ub
Experimental method: Eu-Ubquitin-UbcH5B was prepared by incubating Eu-Ubquitin (Cisbio) with UbcH5B (ENZO), E1 (ENZO) at 37° C. for 4 hours. Eu-Ubquitin-UbcH5B was aliquoted and stored at −80° C. Cbl-b activity assay was performed in 384-well plates (Perkin Elmer). 100 nL of 3-fold serial dilutions of compounds (final concentration 10 μM-0.5 nM, starting concentration 10 μM, 3-fold dilution, 10 points, 10th point being 0.5 nM) and 5 μL of 50 nM Biotin-Cbl-b protein (Sigma) were incubated for 1 hour at room temperature, and the reaction buffer was 50 mM HEPES pH 7.0 (Gibco), 100 mM NaCl (Sigma), 0.01% Triton X-100 (Sigma), 0.01% BSA (Sigma) and 1 mM DTT (Invitrogen). 5 μL of Src mixed solution (40 nM Src (R&D), 2 mM ATP (Sigma), 10 mM MgCl2 (Sigma)) was added to the reaction plate and incubated at room temperature for 3 hours. 10 μL of detection solution (12.5 nM Strepdividin-XL665 (Cisbio), 500 nM Eu-Ubquitin-UbcH5B, […] (Invitrogen), 0.004% BSA (Sigma)) was added to the reaction plate, incubated overnight at room temperature, and the HTRF signal (665 nm/615 nm) was read on Envision (Perkin Elmer). IC50 was calculated using IDBS XLfit.

The test system of the next assay is Jurkat T cells. Briefly: Jurkat T activation assay (IL-2 release, ELISA). As to conditions: IL-2 release of Jurkat T cells, Anti-Human CD3/CD28 stimulation, 48 hours, IL-2 ELISA. The procedure: Experiment purpose: Testing of effect of compounds on IL-2 release and activation of Jurkat T cells
Experimental method: 96-well cell plates (Corning) were coated with 2 μg/mL Anti-Human CD3 Clone OKT3 (BD) at 37° C. for 4 hours. 3-fold serial dilutions of compounds (final concentration 10 μM-4.6 nM, starting concentration 10 μM, 3-fold dilution, 8 points, 8th point being 4.6 nM) and 220 μL of 1.11×10^6/mL Jurkat T cells (ATCC) were incubated for 1 hour, 5 μL of 45 μg/mL Anti-Human CD28 Clone CD28.2 (BD) was added, mixed evenly, 100 μL was transferred to the aforementioned CD3-coated cell plate, cultured in a cell incubator at 37° C. for 48 hours, and the supernatant was collected and the IL-2 release was detected using an IL-2 ELISA kit (BD). EC50 was analyzed using Prism.

What is called IC50 is the concentration that gives 50% inhibition. A higher IC50 goes with a need for much substance. The EC50 is the concentration needed to bring the measured effect to its halfway point. Lower therefore signals a more potent agent. The compound `CC1CC(c2cccc(-c3cnc4c(C(F)(F)F)cc(CN5CCC[C@H](C)C5)cn4c3=O)c2)(c2nncn2C)C1` (single isomer, unassigned) had an IC50 in assay [1] of 30.5 nM. In the assay with Jurkat T cells, the EC50 came to 401 nM.
